Assays:
[1] = molecular target: rat α9α10 nAChR (Rattus norvegicus, UniProt P43144+Q9JLB5); type: cell-based
[2] = molecular target: human α9α10 nAChR (Homo sapiens, UniProt Q9GZZ6+Q9UGM1); type: cell-based

Protein sequences, listed by entry. Tags and fused reporters are not part of them. Residues count along the entry.
UniProt P43144, 26-479 limits assumed: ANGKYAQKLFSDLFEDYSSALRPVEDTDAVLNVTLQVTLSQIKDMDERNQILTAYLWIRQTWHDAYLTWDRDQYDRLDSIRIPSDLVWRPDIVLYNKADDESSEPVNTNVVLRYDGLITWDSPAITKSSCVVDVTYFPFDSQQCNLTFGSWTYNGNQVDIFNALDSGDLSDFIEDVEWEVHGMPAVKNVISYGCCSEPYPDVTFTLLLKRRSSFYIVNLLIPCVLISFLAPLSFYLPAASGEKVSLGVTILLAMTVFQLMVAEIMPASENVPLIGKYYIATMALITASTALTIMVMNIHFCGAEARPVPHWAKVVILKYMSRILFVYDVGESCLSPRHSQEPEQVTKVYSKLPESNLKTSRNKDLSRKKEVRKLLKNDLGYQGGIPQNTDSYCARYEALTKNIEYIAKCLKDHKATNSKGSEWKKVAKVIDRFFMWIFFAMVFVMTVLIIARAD
UniProt Q9JLB5, 25-447 limits assumed: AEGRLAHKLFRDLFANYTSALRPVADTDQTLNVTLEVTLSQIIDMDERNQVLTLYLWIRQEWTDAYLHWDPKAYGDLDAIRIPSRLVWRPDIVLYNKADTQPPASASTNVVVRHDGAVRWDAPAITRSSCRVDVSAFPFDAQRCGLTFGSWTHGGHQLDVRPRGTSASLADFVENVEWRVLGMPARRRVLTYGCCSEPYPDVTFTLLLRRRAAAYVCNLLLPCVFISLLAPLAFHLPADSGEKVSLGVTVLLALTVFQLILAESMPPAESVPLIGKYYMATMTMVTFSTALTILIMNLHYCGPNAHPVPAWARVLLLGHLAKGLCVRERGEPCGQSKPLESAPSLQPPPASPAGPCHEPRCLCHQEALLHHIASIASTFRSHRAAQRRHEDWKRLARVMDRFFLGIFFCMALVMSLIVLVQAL
UniProt Q9GZZ6, 25-450 limits assumed: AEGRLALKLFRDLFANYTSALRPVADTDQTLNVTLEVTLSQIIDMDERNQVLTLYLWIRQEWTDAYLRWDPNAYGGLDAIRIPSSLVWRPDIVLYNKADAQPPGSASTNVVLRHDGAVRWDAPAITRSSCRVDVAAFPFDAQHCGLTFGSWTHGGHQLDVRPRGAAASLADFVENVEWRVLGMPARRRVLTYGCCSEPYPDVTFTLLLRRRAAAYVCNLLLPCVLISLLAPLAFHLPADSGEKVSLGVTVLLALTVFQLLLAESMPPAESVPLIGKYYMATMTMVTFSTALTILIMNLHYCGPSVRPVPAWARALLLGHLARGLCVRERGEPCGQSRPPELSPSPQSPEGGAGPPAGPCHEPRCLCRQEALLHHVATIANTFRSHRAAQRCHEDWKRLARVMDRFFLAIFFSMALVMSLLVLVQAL
UniProt Q9UGM1, 26-479 limits assumed: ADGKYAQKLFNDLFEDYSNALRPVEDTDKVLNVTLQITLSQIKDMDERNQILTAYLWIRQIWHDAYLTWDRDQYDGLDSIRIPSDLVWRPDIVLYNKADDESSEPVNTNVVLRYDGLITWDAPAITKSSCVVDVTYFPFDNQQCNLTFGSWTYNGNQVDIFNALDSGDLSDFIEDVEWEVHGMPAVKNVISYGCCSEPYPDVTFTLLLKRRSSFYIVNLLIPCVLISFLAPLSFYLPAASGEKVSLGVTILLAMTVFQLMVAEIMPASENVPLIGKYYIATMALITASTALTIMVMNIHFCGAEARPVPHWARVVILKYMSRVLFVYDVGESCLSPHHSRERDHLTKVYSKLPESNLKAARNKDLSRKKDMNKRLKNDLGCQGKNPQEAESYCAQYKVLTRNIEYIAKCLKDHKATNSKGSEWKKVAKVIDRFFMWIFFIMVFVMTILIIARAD

N=C(N)NCCC[C@H](NC(=O)[C@@H]1CSSC[C@@H]2NC(=O)[C@@H](NC(=O)CN)CSSC[C@H](NC(=O)[C@H](CCCNC(=N)N)NC(=O)[C@@H]3CCCN3C(=O)[C@H](CC(=O)O)NC(=O)[C@H](CO)NC2=O)C(=O)N[C@@H](CCCNC(=N)N)C(=O)N[C@@H](Cc2ccc(O)c(I)c2)C(=O)N[C@@H](CCCNC(=N)N)C(=O)N1)C(=O)O [SEQ ID NO:21, GCCSDPRCRX3RCR]
change in potency on the rat receptor [1]: small increase in potency | Fold improvement [2]: 4.6 fold | fold increase in potency on the human receptor [2]: 4-8 fold

Source: US10633417B2 (priority 2013, dated 2020)
